This assay concerns the target T1, human CD55 (human, UniProt P08174 35-353, limits assumed).
T1 construct: also called Decay-Accelerating Factor; DAF
T1 sequence (looked up): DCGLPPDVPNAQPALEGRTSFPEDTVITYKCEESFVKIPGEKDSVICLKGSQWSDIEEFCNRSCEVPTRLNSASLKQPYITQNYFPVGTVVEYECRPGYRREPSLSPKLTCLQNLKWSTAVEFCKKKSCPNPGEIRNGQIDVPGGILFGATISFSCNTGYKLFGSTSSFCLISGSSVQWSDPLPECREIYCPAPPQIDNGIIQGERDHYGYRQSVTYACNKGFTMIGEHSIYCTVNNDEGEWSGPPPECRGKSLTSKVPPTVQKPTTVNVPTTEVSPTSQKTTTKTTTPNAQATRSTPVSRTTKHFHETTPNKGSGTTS
Briefly: library screen, species specificity summary.

B1: P5-10B (antibody, V domains shown)
VH: EVQLVESGGGLVQPGGSLRLSCAASGFTFTDYDIHWVRQAPGKGLEWVAGWINPYNGYTDYADSVKGRFTISADTSKNTAYLQMNSLRAEDTAVYYCARPLSWALDYWGQGTLVTVSS
VL: not shown
For B1, the binding result is recorded as “binds”.

Values taken from US20220088193A1 (AGONOX, published 2022).
